# In ChEMBL document CHEMBL4619711, “Medicinal Chemistry of Inhibiting RING-Type E3 Ubiquitin Ligases” (J Med Chem, 2020):
# Chains of the proteins cited; added tags and fusions are not shown.
# UniProt P98170, whole entry: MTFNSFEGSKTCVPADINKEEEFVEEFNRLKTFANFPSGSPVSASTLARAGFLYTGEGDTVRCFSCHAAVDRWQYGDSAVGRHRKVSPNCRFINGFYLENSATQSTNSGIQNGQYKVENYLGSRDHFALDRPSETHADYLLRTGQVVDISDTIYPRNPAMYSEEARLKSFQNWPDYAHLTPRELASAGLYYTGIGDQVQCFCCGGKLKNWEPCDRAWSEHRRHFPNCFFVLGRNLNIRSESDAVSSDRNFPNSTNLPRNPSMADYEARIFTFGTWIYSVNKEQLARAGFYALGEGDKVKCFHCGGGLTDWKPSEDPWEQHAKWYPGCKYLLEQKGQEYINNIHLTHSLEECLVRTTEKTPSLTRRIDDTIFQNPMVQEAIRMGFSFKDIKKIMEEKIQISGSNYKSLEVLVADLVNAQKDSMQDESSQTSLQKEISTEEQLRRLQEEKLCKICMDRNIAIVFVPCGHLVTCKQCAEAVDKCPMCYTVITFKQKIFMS
# Target: E3 ubiquitin-protein ligase XIAP (Homo sapiens, UniProt P98170)
# Assay: Inhibition of XIAP-BIR3 domain (unknown origin)
compound,measurement,value
CN[C@@H](C)C(=O)N[C@H]1COc2ccccc2N(Cc2c(OC)ccc3cc(Br)ccc23)C1=O,IC50,> 54 µM
